Test results taken from article PMC8111326 (Journal of Molecular Endocrinology, 2021).
Entries after “also recorded” stand apart in the source; their conditions may differ.

Columns and labels:
[1] = test system: endogenous M3-AChR in HEK293 cells; conditions: HEK293 cell suspensions, ref Mountjoy et al. 2001, cited from earlier work
[2] = test system: endogenous M3-AChR in HEK293 cells; conditions: 30 μL injection at 150 μL/s into 210 μL cell suspension
[3] = test system: endogenous M3-AChR in HEK293 cells

C[N+](C)(C)CCOC(N)=O [carbachol, carbamylcholine chloride]
carbachol-induced M3-AChR mobilisation of [Ca2+]i (in words) ([1]; manual assay): induces robust M3-AChR-activated mobilisation of [Ca^2+]i; also recorded: increasing [Ca^2+]i
peak minus baseline carbachol-activated M3-AChR-induced increase in [Ca2+]i ([1]; manual method): ~ 290 nM
EC50 ([1]; read-out: EC50, carbachol-activated M3-AChR-induced [Ca2+]i, manual method): ~5 µM
carbachol M3-AChR-induced [Ca2+]i (in words) [2]: robust carbachol-induced increase for [Ca^2+]i
carbachol-induced calcium signal, esterase cleavage buffer CLB-HG vs HBSS, CLB-LG ([3]; 10^-3, 10^-4 and 10^-5 M, two independent experiments): consistently induced higher calcium signal in the presence of CLB-HG compared with HBSS or CLB-LG
carbachol-induced calcium signal, loading temperature RT vs 37°C ([3]; 10^-4, 10^-5 and 10^-6 M, DMEM, two independent experiments): consistently induced higher calcium signal when Fura-2/AM loading was performed at RT compared with 37 °C
carbachol-induced calcium signal, esterase cleavage temperature 37°C vs RT ([3]; 10^-4, 10^-5 and 10^-6 M, two independent experiments): consistently induced higher calcium signal when Fura-2/AM esterase cleavage was performed at 37°C, compared with RT
carbachol-stimulated calcium signal with 1 mM probenecid vs 2.5 mM ([3]; 10^-4 M, Fig. S6, three independent experiments): no blunting of carbachol-stimulated calcium signal with 1 mM probenecid
carbachol-induced calcium signal with vs without probenecid ([3]; 10^-4 M, probenecid 2.5 mM, three independent experiments): consistently induced higher calcium signal when probenecid was included both in Fura-2/AM loading buffer (DMEM) and Fura-2/AM esterase cleavage buffer (CLB-HG)
carbachol-induced calcium signal with vs without pluronic acid ([3]; 10^-4 M, three independent experiments): consistently induced higher calcium signal when Fura-2/AM loading was conducted in the presence of pluronic acid compared with no pluronic acid
carbachol-induced calcium signal, loading time 15 to 75 min ([3]; 10^-4 and 10^-5 M, RT, DMEM, three independent experiments): consistently induced higher calcium signal when Fura-2/AM loading was conducted at RT for 60 min compared with other incubation times
carbachol-induced calcium signal, Fura-2/AM loading buffer DMEM vs CLB-HG ([3]; 10^-4 and 10^-5 M, two independent experiments): consistently induced higher calcium signal with DMEM compared with CLB-HG
carbachol-induced calcium signal, esterase cleavage time 10 to 120 min ([3]; 10^-5 M, CLB-HG, 37°C, three independent experiments): consistently induced higher calcium signal when cells were incubated for 80 min compared with other times
